Source: ChEMBL document CHEMBL1781915, “Potential virtual lead identification in the discovery of renin inhibitors: application of ligand and structure-based pharmacophore modeling approaches” (Eur J Med Chem, 2011)

Protein sequences, listed by entry. Tags and fused reporters are not part of them. Lines headed by an entry give the natural chain unless they say otherwise; changes in a name come on top.
UniProt P00797: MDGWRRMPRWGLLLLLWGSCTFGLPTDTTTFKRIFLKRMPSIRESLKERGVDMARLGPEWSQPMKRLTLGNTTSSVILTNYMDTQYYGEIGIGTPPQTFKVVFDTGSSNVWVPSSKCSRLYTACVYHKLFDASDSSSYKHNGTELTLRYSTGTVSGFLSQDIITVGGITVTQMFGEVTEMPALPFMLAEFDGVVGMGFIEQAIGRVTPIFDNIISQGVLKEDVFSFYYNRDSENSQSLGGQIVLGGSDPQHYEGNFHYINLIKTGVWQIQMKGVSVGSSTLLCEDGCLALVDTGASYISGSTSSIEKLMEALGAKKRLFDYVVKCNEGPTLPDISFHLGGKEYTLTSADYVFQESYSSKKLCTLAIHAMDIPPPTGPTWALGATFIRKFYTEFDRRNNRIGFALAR

Molecular target: Renin (Homo sapiens, UniProt P00797)

SMILES	IC50 [nM]
CCCCNC(=O)C(C)CC(O)C(N)CC(C)COC(=O)c1cn(Cc2ccccc2)c2ccccc12 (configuration not stated)	3
CNCC(CC1CCCCC1)NC(=O)N1CCCC(C(O)(CCCCOC)c2cccc(Cl)c2)C1 (configuration not stated)	0.47
